{
  "source": "ChEMBL document CHEMBL4043279",
  "about": "(Bioorg Med Chem Lett, 2017)",
  "key": {"[1]": {"system": "THP-1", "test": "Antiproliferative activity against human THP1 cells treated for 24 hrs measured after 72 hrs by MTT assay"}, "[2]": {"system": "PC-3", "test": "Antiproliferative activity against human PC3 cells treated for 24 hrs measured after 72 hrs by MTT assay"}, "[3]": {"system": "HL-60", "test": "Antiproliferative activity against human HL60 cells treated for 24 hrs measured after 72 hrs by MTT assay"}, "[4]": {"system": "HepG2", "test": "Antiproliferative activity against human HepG2 cells treated for 24 hrs measured after 72 hrs by MTT assay"}},
  "data": [
    {"compound": "O=C(O)c1ccc(N(CCCl)CCCl)cc1", "values": [
      {"measurement": "IC50", "setting": "[1]", "result": 8.56, "unit": "µM"},
      {"measurement": "IC50", "setting": "[2]", "result": 63.5, "unit": "µM"},
      {"measurement": "IC50", "setting": "[3]", "result": 12.3, "unit": "µM"},
      {"measurement": "IC50", "setting": "[4]", "result": "> 100", "unit": "µM"}
    ]}
  ]
}
